Data on one compound can be found in PubChem BioAssay AID1030 (National Center for Advancing Translational Sciences (NCATS), 2008).

Protein sequences, listed by entry. Tags and fused reporters are not part of them. Lines headed by an entry give the natural chain unless they say otherwise; changes in a name come on top.
UniProt P00352: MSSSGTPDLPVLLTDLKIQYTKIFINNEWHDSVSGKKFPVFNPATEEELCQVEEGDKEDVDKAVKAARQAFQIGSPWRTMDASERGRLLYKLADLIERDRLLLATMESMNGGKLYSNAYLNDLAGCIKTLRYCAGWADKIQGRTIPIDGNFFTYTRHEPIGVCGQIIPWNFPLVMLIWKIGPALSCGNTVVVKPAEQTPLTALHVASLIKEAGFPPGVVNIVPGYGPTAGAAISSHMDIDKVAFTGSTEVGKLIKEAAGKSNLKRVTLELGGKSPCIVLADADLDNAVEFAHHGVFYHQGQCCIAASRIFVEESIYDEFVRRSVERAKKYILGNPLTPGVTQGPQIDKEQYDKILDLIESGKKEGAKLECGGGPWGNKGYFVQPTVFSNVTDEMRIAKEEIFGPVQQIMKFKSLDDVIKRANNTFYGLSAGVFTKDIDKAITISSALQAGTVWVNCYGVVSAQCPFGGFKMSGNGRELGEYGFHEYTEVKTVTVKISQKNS

This test has as its target Aldehyde dehydrogenase 1A1 (Homo sapiens) (UniProt P00352). The test can be described thus: qHTS Assay for Inhibitors of Aldehyde Dehydrogenase 1 (ALDH1A1).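 Note: plate controls were no enzyme wells and a reference inhibitor.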 The following applies: Purified ALDH1A1, NADH fluorescence, propionaldehyde substrate.

Where “and” joins values, the source holds several entries; their conditions need not be identical. Identical values can stand only once. Only a part is listed here, and it is no random draw. Inconclusive results are not listed. Calls of active or inactive are those of the source. Calls come from the whole dose curve; as a rule, active = well fitted inhibition curve with a large enough effect (not every such curve was filed as active); inconclusive = small, poorly fitted or top-dose-only effect, or another doubt; inactive = no such curve, though single readings can be large or run the other way.

With `Cc1cc(NS(=O)(=O)c2ccc(N)cc2)no1`, the activity, negative = inhibition by setting is: (at 20.9 µM (top of the series)) inactive: 8.02%; (at 75.3 µM (top of the series)) inactive: 3.91% and inactive: 4.8%.
